Test results: PMC9362525 (Diabetologia, 2022)

Columns and labels:
patients with T2D = format: in vivo, human
patients with T2DM = format: in vivo, human

NPH-insulin
∆LVEF Rest, treatment vs washout (patients with T2D; cardiac MRI): 1±1%
∆LVPFR Rest, treatment vs washout (patients with T2D; cardiac MRI): 8 ± 25 mL/s
∆LVEF Stress, treatment vs washout (patients with T2D; chronotropic stress): -1±1%
∆LVPFR Stress, treatment vs washout (patients with T2D; chronotropic stress): -16 ± 28 mL/s
3-OH butyrate (patients with T2D; fasting, end of 5 weeks): 0.23 ± 0.02 mM
FFAs (patients with T2D; fasting, end of 5 weeks): 0.50 ± 0.05 mM
serum insulin (patients with T2D; fasting, end of 5 weeks): 141 ± 16 pM
incidence of severe hypoglycaemia (patients with T2DM; all): 1.8 % per year
incidence of severe hypoglycaemia (patients with T2DM; female): 1.7 %/year
incidence of severe hypoglycaemia (patients with T2DM; male): 1.9 %/year

Like-named read-outs stand apart in the source and are kept apart here.
